{"source": "patent US10118966B2", "about": "“Anti-EGFR monoclonal antibody, methods of making, and uses thereof in the treatment of cancer” (Shanghai Biomabs Pharmaceuticals Co., Ltd., priority 2015, dated 2018)", "key": {"[1]": {"test_system": "subjects", "assay": "CMAB009 clinical safety, 73 subjects (Example 8)", "type": "in vivo, human"}, "[2]": {"test_system": "patients with relapse of advanced cancers", "assay": "Clinical tolerance study of CMAB009 mAb (Example 7)", "type": "in vivo, human"}, "[3]": {"assay": "Clinical studies, summary statements", "type": "in vivo, human", "source_text": "Based on this, we designed and selected CHO expression system and successfully prepared genetically engineered anti-EGFR antibody (CMAB009 mAb) with different glycan structures."}, "[4]": {"test_system": "ADA", "assay": "Fortebio Octet immunogenicity analysis: ADA in clinical serum samples", "parameters": "species or system human", "source_text": "In this study, the biosensors made with biofilm interference technology and optical fibers were employed, in which the bottom was covered with SA ligands conjugated with biomolecule compatible layers. Once the captured biotinylated antibody is bound to the ligands, the biofilm thickness increases, reflected light interference spectral curve drift a measurable distance, thereby enabling real-time measurement of intermolecular interactions. This method is equivalent to the self-assembly process of the captured antibodies, which formed a range of optimal conformations at a certain density for capturing antibody on the surface of the biosensor, which not only improves the analytical sensitivity but also increases the linear range, which helps reduce the false-positive reactions from non-specific binding."}}, "note": "Entries after “also recorded” stand apart in the source; their conditions may differ."}
{"substance": "CMAB009: cetuximab antibody produced in a CHO cell; light chain SEQ ID NO: 2, heavy chain SEQ ID NO: 4; no NGNA or Gal-α(1,3)-Gal glycan", "values": [{"measurement": "clinically significant new toxicity", "setting": "[1]; 73 subjects", "result": "no clinically significant new toxicity observed"}, {"measurement": "severe hypersensitivity", "setting": "[1]; among the 73 subjects", "result": "no was severe hypersensitivity observed; also recorded: no severe hypersensitivity reactions observed"}, {"measurement": "dose-limiting toxicity", "setting": "[2]; 18 subjects", "result": "No dose-limiting toxicity was observed"}, {"measurement": "drug-related hypersensitivity", "setting": "[2]; 18 subjects", "result": "no drug-related hypersensitivity was observed; also recorded: no CMAB009 antibody related hypersensitivity observed"}, {"measurement": "grade III-IV drug-related toxicity", "setting": "[2]; 18 subjects", "result": "no grade III-IV drug-related toxicity"}, {"measurement": "clinical tolerance", "setting": "[2]; 18 subjects, 100-400 mg/m^2 intravenous, single and multiple dose", "result": "well tolerated"}, {"measurement": "Acne-like rash, %", "setting": "[2]; N = 18", "result": 61.1, "unit": "%"}, {"measurement": "Acne-like rash, CTC Grade I, no. events", "setting": "[2]; N = 18", "result": 10}, {"measurement": "Acne-like rash, CTC Grade III-IV, no. events", "setting": "[2]; N = 18", "result": 0}, {"measurement": "Acne-like rash, Total no. events", "setting": "[2]; N = 18", "result": 11}, {"measurement": "Fatgue/malaise, %", "setting": "[2]; N = 18", "result": 5.6, "unit": "%"}, {"measurement": "Fatgue/malaise, CTC Grade II, no. events", "setting": "[2]; N = 18", "result": 0}, {"measurement": "Fatgue/malaise, CTC Grade III-IV, no. events", "setting": "[2]; N = 18", "result": 0}, {"measurement": "Fever chills, %", "setting": "[2]; N = 18", "result": 55.6, "unit": "%"}, {"measurement": "Fever chills, CTC Grade I, no. events", "setting": "[2]; N = 18", "result": 6}, {"measurement": "Fever chills, CTC Grade II, no. events", "setting": "[2]; N = 18", "result": 4}, {"measurement": "Fever chills, CTC Grade III-IV, no. events", "setting": "[2]; N = 18", "result": 0}, {"measurement": "Fever chills, Total no. events", "setting": "[2]; N = 18", "result": 10}, {"measurement": "Headache, %", "setting": "[2]; N = 18", "result": 16.7, "unit": "%"}, {"measurement": "Headache, CTC Grade I, no. events", "setting": "[2]; N = 18", "result": 3}, {"measurement": "Headache, CTC Grade II, no. events", "setting": "[2]; N = 18", "result": 0}, {"measurement": "Headache, CTC Grade III-IV, no. events", "setting": "[2]; N = 18", "result": 0}, {"measurement": "Headache, Total no. events", "setting": "[2]; N = 18", "result": 3}, {"measurement": "Nasal discharge, %", "setting": "[2]; N = 18", "result": 5.6, "unit": "%"}, {"measurement": "Nasal discharge, CTC Grade II, no. events", "setting": "[2]; N = 18", "result": 0}, {"measurement": "Nasal discharge, CTC Grade III-IV, no. events", "setting": "[2]; N = 18", "result": 0}, {"measurement": "Nausea/vomiting, %", "setting": "[2]; N = 18", "result": 27.8, "unit": "%"}, {"measurement": "Nausea/vomiting, CTC Grade I, no. events", "setting": "[2]; N = 18", "result": 5}, {"measurement": "Nausea/vomiting, CTC Grade II, no. events", "setting": "[2]; N = 18", "result": 0}, {"measurement": "Nausea/vomiting, CTC Grade III-IV, no. events", "setting": "[2]; N = 18", "result": 0}, {"measurement": "Nausea/vomiting, Total no. events", "setting": "[2]; N = 18", "result": 5}, {"measurement": "Transaminase elevation, %", "setting": "[2]; N = 18", "result": 5.6, "unit": "%"}, {"measurement": "Transaminase elevation, CTC Grade II, no. events", "setting": "[2]; N = 18", "result": 0}, {"measurement": "Transaminase elevation, CTC Grade III-IV, no. events", "setting": "[2]; N = 18", "result": 0}, {"measurement": "paronychia, %", "setting": "[2]; N = 18", "result": 5.6, "unit": "%"}, {"measurement": "paronychia, CTC Grade II, no. events", "setting": "[2]; N = 18", "result": 0}, {"measurement": "paronychia, CTC Grade III-IV, no. events", "setting": "[2]; N = 18", "result": 0}, {"measurement": "IgE specific ADA", "setting": "[3]", "result": "no IgE specific ADA detected"}, {"measurement": "drug-related hypersensitivity", "setting": "[3]", "result": "no drug-related hypersensitivity observed"}, {"measurement": "pharmacokinetic parameters", "setting": "[3]; compared with Erbitux®", "result": "consistent with those of Erbitux®"}, {"measurement": "subjects with ADA detected", "setting": "[4]; 1/73", "result": 1.4, "unit": "%"}, {"measurement": "potentially positive subjects by cut point value analysis (ADA)", "setting": "[4]; in 73 subjects", "result": 3, "unit": "subjects"}, {"measurement": "ADA subtype", "setting": "[4]; subtype analysis", "result": "IgG type"}]}
